Data: patent US8877706B2, “Maytansinoid derivatives” (Bio-Thera Solutions, Ltd., Co., priority 2012, dated 2014)
“Also recorded” adds a separate entry of the source.

Legend:
A549 cells = test: Growth inhibition, relative cell proliferation with CCK-8, A549; format: cell-based; settings: A549 (Her2 negative, Kras mutation), 72 hours
Description: Briefly, cells were detached by using 0.25% (vol/vol) trypsin and suspended in complete medium. Aliquots of cells were plated into 96-well microdilution plates. […] After 72 hours, plates were washed twice with PBS (pH 7.5), and analyzed for relative cell proliferation with CCK-8 reagent.
After 72 hours, plates were washed twice with PBS (pH 7.5), and analyzed for relative cell proliferation with CCK-8 reagent.

[1] = tested on: human BT474 tumor xenografts; test: Human BT474 tumor xenografts in BALB/c nude mice; format: in vivo, mouse
Description: Human BT474 cells (ATCC, HTB-20) were cultured in DMEM medium supplemented with 10% fetal bovine serum, 2 mM glutamine and antibiotics. Female BALB/c nude mice, 8-9 weeks old, were injected subcutaneously with 1×10^7 tumor cells in the dorsal area in a volume of 100 μL.

[2] = tested on: human NCI-N87 tumor xenografts; test: Human NCI-N87 tumor xenografts in BALB/c nude mice; format: in vivo, mouse

| Substance | inhibition of growth of A549 cells (A549 cells) | inhibition of growth of A549 cells (A549 cells; listed as Batanine-0606) | tumor shrinkage ([1]; 15 mg/kg i.v. every 3 weeks, 3 doses, from day 7) | tumor size, palpability ([1]; 15 mg/kg i.v., from day 10 onwards) | eradication of tumor in mouse xenografts ([1]; FIG. 30) | tumor growth as assessed by tumor weight ([1]; compared to the unconjugated Bat0606, 49 days after drug treatment) | tumor shrinkage ([2]; 5 or 15 mg/kg i.v. once per week, 5 doses, from day 11) | tumor size, palpability ([2]; 5 or 15 mg/kg i.v., from day 32 onwards) | tumor growth as assessed by tumor weight ([2]; 5 or 15 mg/kg, compared to the unconjugated Bat0606, 35 days after drug treatment) |
| --- | --- | --- | --- | --- | --- | --- | --- | --- | --- |
| D-Lmcc-Bat0606 | Neither naked antibody Bat0606 nor drug conjugate D-Lmcc-Bat0606 inhibited the growth; also recorded: did not inhibit A549 cells | – | – | – | – | – | – | – | – |
| Batansine-0606: conjugate of partially reduced antibody Bat0606 with batansine (3AA-MDC) | Neither naked antibody Bat0606 nor drug conjugate Batansine-0606 inhibited the growth | did not inhibit A549 | Rapid tumor shrinkage | shrunken to non-palpable | eradicated human BT474 tumor in mouse xenografts | more significantly inhibited the tumor growth | rapid tumor shrinkage | shrunken to non-palpable | more significantly inhibited the tumor growth |
| Bat0606: monoclonal antibody (trastuzumab) binding the extracellular domain of Her2 | Neither naked antibody Bat0606 nor drug conjugate Batansine-0606 inhibited the growth; also recorded: Neither naked antibody Bat0606 nor drug conjugate D-Lmcc-Bat0606 inhibited the growth; also recorded: did not inhibit A549 cells | – | – | – | – | – | – | – | – |
